Reference: patent US12521437B2 (Synthorx, Inc., priority 2019, dated 2026)

System: CTLL-2
Assay: CTLL-2 proliferation
Assay type: cell-based, mouse

“Native IL-2: native IL-2 (wild-type IL-2; Thermo #PHC0021) [reference compound]” was tested, and the “EC50 CTLL-2 proliferation” value (Table 3) was 0.846 ng/mL and the “EC50 CTLL-2 proliferation” value (Table 13 (Example 11)) was 0.4558 ng/mL.
